# Binding of CDR-mutated scFvs to a peptide of the spike HR2 region

Reference: Engelhart et al. 2022, doi:10.1038/s41597-022-01779-4. File: FLAb, binding data.

Target peptide (SARS-CoV-2 spike, HR2 region): PDVDLGDISGINAS

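Library AAYL52 holds single substitutions and randomly drawn double and triple substitutions in the CDRs. The assay is AlphaSeq: two haploid yeast populations carry antibody and antigen on their surface. Mating (16 h, 30 °C) was followed by selection of diploids and sequencing of their barcodes. Scores were corrected for input abundance and mapped to Kd with protein pairs of known affinity run in the same pool. The assay was run in three technical replicates.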

Parent: Ab-95, a human scFv built as VH, three GGGGS repeats, VL. Only the CDRs of the light chain vary.
VH: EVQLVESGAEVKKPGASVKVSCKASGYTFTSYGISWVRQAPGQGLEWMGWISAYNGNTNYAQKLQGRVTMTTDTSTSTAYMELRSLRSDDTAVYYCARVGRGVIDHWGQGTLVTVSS
VL: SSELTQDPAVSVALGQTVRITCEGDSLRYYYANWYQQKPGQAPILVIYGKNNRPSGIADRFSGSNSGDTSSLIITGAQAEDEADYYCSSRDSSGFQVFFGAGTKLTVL

The parent's light chain CDRs are EGDSLRYYYAN, GKNNRPS, SSRDSSGFQVF; each variant's own CDRs replace them letter for letter. Every variant below is changed at E23 of the VL (sequential numbering). Affinities are written as log10 Kd with Kd in nM; a lower number is a better binder. Averages over replicates are reported, and they cover detected replicates only. An entry "nd" has no value in the source: the pair was not observed among the diploids in any replicate. This suggests poor binding but is not conclusive. Three control strains display no target. For library AAYL52, 28% of the pairings with them gave a signal, with a median of 3.91 and one signal in twenty below 2.90, so weak values seen in few replicates may be background.

Variant AGDTLRYYYAN / GKNYRPS / SSRDSSGFQVF gave 3.96 (3 of 3 replicates).
Variant KGDSLRYYYAN / GKNNTPS / SSRDSSGFDVF gave 3.34 (3 of 3 replicates).
Variant RGDSLRYYYAN / GKNNRLS / TSRDSSGFQVF gave 3.10 (3 of 3 replicates).
Variant AEDSLRYEYAN / GKNNRPS / SSRDSSGFQVF gave 2.42 (3 of 3 replicates).
Variant QGDSLRYYYAN / GKNNRPS / SERDSSGSQVF gave 1.56 (3 of 3 replicates).
Variant GGDSLRYHYAN / GKNNRPS / SSRDSSGFQVN gave 1.29 (3 of 3 replicates).
Variant KGDSLRWYYAN / GKNNRPS / SSRDSSGFQVF gave 2.28 (3 of 3 replicates).
Variant QGDSCRYYYAN / GKNNRPS / SSRDSSGFHVF gave 1.38 (3 of 3 replicates).
Variant MGDSERYAYAN / GKNNRPS / SSRDSSGFQVF gave 2.98 (3 of 3 replicates).
Variant QGDSLRYYYAN / GKNNLPS / SSPDSSGFQVF gave 3.94 (1 of 3 replicates).
Variant YGDSLRYYMAN / GKNNRWS / SSRDSSGFQVF gave 4.09 (3 of 3 replicates).
Variant RGDSLRYYYAN / GKNNWPS / SSRDSSGFQVF gave 3.63 (2 of 3 replicates).
Variant DGDSLRYYYAN / GKNNRPS / SSRDSSGFQVF gave 2.79 (3 of 3 replicates).
Variant NGDSLRYYYAN / GKNNRPS / SSSDSSGQQVF gave 4.08 (3 of 3 replicates).
Variant RGDSLRYYYEN / GSNNRPS / SSRDSSGFQVF gave nd (0 of 3 replicates).
Variant FGDSLRYYYAN / NANNRPS / SSRDSSGFQVF gave 2.02 (3 of 3 replicates).
Variant RFDSLRYKYAN / GKNNRPS / SSRDSSGFQVF gave 3.52 (2 of 3 replicates).
Variant YGDSLIYYYAN / EKNNRPS / SSRDSSGFQVF gave 3.51 (2 of 3 replicates).
Variant WGDSLRYYYAN / GCNRRPS / SSRDSSGFQVF gave 3.61 (1 of 3 replicates).
Variant MGDSLRYEYAN / GKNNRPS / SSRDSPGFQVF gave 2.03 (3 of 3 replicates).
Variant FGDSLRYYYAN / GKNNRPS / SSRGSSDFQVF gave 3.61 (2 of 3 replicates).
Variant YGDSLRYYYAN / GKNNIPS / SSRDSSGFQWF gave nd (0 of 3 replicates).
Variant KGDSLFYYYAN / GKNNRPS / SSRDSSGFKVF gave 3.12 (3 of 3 replicates).
Variant NGDCLRYYYAN / FKNNRPS / SSRDSSGFQVF gave 2.42 (3 of 3 replicates).
Variant MGDSLRYYYAN / GKCNRPS / SSRDSSGFEVF gave 3.14 (3 of 3 replicates).
Variant HGDSLLYYYAN / GKNNRPS / SSRDSSGYQVF gave 2.21 (3 of 3 replicates).
Variant SGDSPRYYYAN / GRNNRPS / SSRDSSGFQVF gave 4.38 (2 of 3 replicates).
Variant QGDSLRYYYAN / EKWNRPS / SSRDSSGFQVF gave nd (0 of 3 replicates).
Variant QGDSLRYYYAN / GKNNTPS / SSEDSSGFQVF gave 2.10 (3 of 3 replicates).
Variant NGTSLRYYYAN / GKNNRPS / SSRDSSGFSVF gave 3.18 (3 of 3 replicates).
Variant HGDSLRYYYAN / GYNNRPS / SSRDESGFQVF gave 2.50 (3 of 3 replicates).
Variant MGDSLRLGYAN / GKNNRPS / SSRDSSGFQVF gave 0.42 (3 of 3 replicates).
Variant KLDSLRYYYAN / KKNNRPS / SSRDSSGFQVF gave nd (0 of 3 replicates).
Variant PGDSLRYYYAV / GKNNRPS / SSRDSSGCQVF gave 3.40 (2 of 3 replicates).
Variant DGDSLRYYYAN / GKNNRPQ / SSRDSSGFQVF gave 2.18 (3 of 3 replicates).
Variant SGDSLTYYYAN / GKNGRPS / SSRDSSGFQVF gave 2.21 (3 of 3 replicates).
Variant KGDSLRYYYAN / GKNNRPS / SSRDSSGHQVF gave 2.77 (3 of 3 replicates).
Variant VGDSLRQYYAN / GKNNRPS / SSVDSSGFQVF gave 2.67 (3 of 3 replicates).
Variant MRDSLRYYYAN / GKNNRPS / SSEDSSGFQVF gave 3.64 (3 of 3 replicates).
Variant IRDSLRYYYAN / GKNNRPS / SSRDSSGFQVF gave 4.78 (3 of 3 replicates).
Variant FGDSLRYYYAN / GKNNRPS / SSRDLSDFQVF gave 3.13 (3 of 3 replicates).

Top 2 of the variants detected in all replicates, tightest first:

{"CDR-L1": "MGDSLRLGYAN", "CDR-L2": "GKNNRPS", "CDR-L3": "SSRDSSGFQVF", "mean log10 Kd (nM)": "0.42", "detected": "3 of 3"}
{"CDR-L1": "GGDSLRYHYAN", "CDR-L2": "GKNNRPS", "CDR-L3": "SSRDSSGFQVN", "mean log10 Kd (nM)": "1.29", "detected": "3 of 3"}

For reference, the parent read 2.31 as the reference entry and 2.25 as a member of this library.